The Vd/F is the volume of distribution divided by bioavailability. The AUC is the area under the concentration-time curve, a measure of exposure. A higher AUC goes with more exposure. As a reminder, the Cmax is the maximum level reached in the sampled fluid or tissue.

One substance from publication PMC7994819, “Pharmacokinetics and metabolomics investigation of an orally modified formula of standardized Centella asiatica extract in healthy volunteers” (Scientific Reports, 2021) can be followed below.

A short description of data set [1]: Urine and feces excretion after oral modified formula ECa 233 capsules (LC–MS/MS). The settings on record: after oral dosing of 250 or 500 mg ECa 233. It counts as in vivo, human (healthy Thai volunteers). Here is the method:
This was a single-center, with an open-label, two-sequence of dosages (250 and 500 mg), two-periods of study (single and multiple dose) conducted in fasting condition (Fig. 1). […] All blood samples were centrifuged at 4 °C, 3200 × g for 10 min. […] Feces were also collected from one of the volunteers for detecting the possible presence of any eliminated compounds. Feces samples were collected each time that a volunteer defecated on day 1-3, 4-6 and 7-9 during the study period. These samples were immediately fixed with methanol and prepared by our previously described method of protein precipitation. […] Plasma, urine and fecal samples were then stored at - 80 °C until analysis. Sample preparation was performed by protein precipitation with two internal standards (glycerrhizin and […]) to correct the quantitative analysis of parent compounds and of their metabolites. Briefly, 200 μL of methanol was added followed by vortex mixing with 50 μL of each sample for 10 min and then centrifuged at 12,000 × g, 4 °C, 10 min. […] The MS/MS system was operated using an ESI source in negative mode with MRM.

Data set [2] is described as follows: Clinical pharmacokinetics in plasma (LC–MS/MS, non-compartmental analysis) after oral modified formula ECa 233 capsules. It counts as in vivo, human (healthy Thai volunteers). The conditions noted are these: for Cl/F / Vd/F / t1/2 / AUC / Cmax: mean ± SD; for Tmax: median [IQR]. Here is the method: This was a single-center, with an open-label, two-sequence of dosages (250 and 500 mg), two-periods of study (single and multiple dose) conducted in fasting condition (Fig. 1). […] The 250 mg of ECa 233 with 240 mL of drinking water were administered orally. […] All blood samples were centrifuged at 4 °C, 3200 × g for 10 min. […] Feces were also collected from one of the volunteers for detecting the possible presence of any eliminated compounds. Feces samples were collected each time that a volunteer defecated on day 1-3, 4-6 and 7-9 during the study period. These samples were immediately fixed with methanol and prepared by our previously described method of protein precipitation. After a 3-week washout period, all participants continued period 2 of the study, where they received a 500-mg dose of ECa 233, and sample collection procedures remained consistent with period 1 (Fig. 2). Plasma, urine and fecal samples were then stored at - 80 °C until analysis. For multiple oral dosing, participants continued to take 250 mg or 500 mg of ECa 233 every morning for 7 consecutive days. Then they had another set of blood and urine samples collected similar to the single dose study. The primary outcome was determination of pharmacokinetic parameters, including the profiles of the metabolites, and the secondary outcome was consideration of the safety profiles of ECa 233 after period 2 (end of the study). Sample preparation was performed by protein precipitation with two internal standards (glycerrhizin and […]) to correct the quantitative analysis of parent compounds and of their metabolites. Briefly, 200 μL of methanol was added followed by vortex mixing with 50 μL of each sample for 10 min and then centrifuged at 12,000 × g, 4 °C, 10 min. Quantitative determination of the parent compounds and their active metabolites in plasma and urine were carried out by using liquid chromatography tandem mass spectrometry (LC-MS/MS): LCMS-8060 (Shimadzu Corp. Japan) according to a previously validated and published bioanalytical method. […] The MS/MS system was operated using an ESI source in negative mode with MRM. For m/z transition; […] Non-compartmental analysis was applied to determine pharmacokinetic parameters and performed by PK solutions software (version 2.0). […] The apparent clearance (Cl/F) after oral administration was calculated as Cl/F = Dose/AUC, where F is the absolute oral bioavailability. The apparent volume of distribution (Vd/F) was estimated using Vd/F = Dose/(AUC × kel). The Cmax and Tmax were determined directly from the observed concentration-time curve.

The mark [3] stands for this setting: multiple dose oral, Day 7 (T0-72 h), ECa 233 250 mg daily, n=12.
Where [4] appears, read: multiple dose oral, Day 7 (T0-72 h), ECa 233 500 mg daily, n=11.
Setting [5] is: plasma, multiple dose oral, Day 7 (T0-72 h), ECa 233 250 mg daily, n=12.
Setting [6] is: plasma, multiple dose oral, Day 7 (T0-72 h), ECa 233 500 mg daily, n=11.
[7] abbreviates: plasma, single dose oral, Day 1 (T0-24 h), ECa 233 250 mg, n=12.
Setting [8] is: plasma, single dose oral, Day 1 (T0-24 h), ECa 233 500 mg, n=11.

Regarding Asiaticoside [ASS], the “time of highest cumulative contents in urine” value in data set [1] is recorded as at most 8 h. Further, the Cl/F in data set [2] (setting [3]) stood at 284.8 ± 225.3 mL/min/kg; in data set [2] (setting [4]), 508 ± 258.3 mL/min/kg. For the same substance, the Vd/F is listed as 155.55 ± 489.17 L/kg in data set [2] (setting [3]) and 458.14 ± 462.33 L/kg in data set [2] (setting [4]). In addition, the t1/2 stood at 10.37 ± 8.84 h in data set [2] (setting [3]) and 9.35 ± 8.18 h in data set [2] (setting [4]). Also, the AUC in data set [2] (setting [5]) is 114.98 ± 54.12 ng·h/mL; in data set [2] (setting [6]) it was 106.82 ± 34.59 ng·h/mL; in data set [2] (setting [7]), 25.20 ± 29.15 ng·h/mL; in data set [2] (setting [8]), 176.59 ± 177.06 ng·h/mL. Besides, the Cmax in data set [2] (setting [5]) stood at 10.93 ± 4.60 ng/mL; in data set [2] (setting [6]), 12.77 ± 2.87 ng/mL; in data set [2] (setting [7]) it was 5.18 ± 3.43 ng/mL; in data set [2] (setting [8]) it was 9.81 ± 3.53 ng/mL. Further, the Tmax in data set [2] (setting [5]) was 1 [0.125] h; in data set [2] (setting [6]), 1 [0.5] h; in data set [2] (setting [7]), 1.25 [0.625] h; in data set [2] (setting [8]), 1 [3.5] h. For the same substance, the “time after dosing at which Cmax was observed” value in data set [2] (plasma, oral modified formula ECa 233 capsules) is listed as at most 1 h.
